Reference: patent publication US20260022153A1 (AMIDEBIO, LLC, priority 2017, published 2026)

Molecular target: IGF1 receptor (IGF1R) (Homo sapiens, UniProt P08069)
Test: Binding affinity of insulin analogs to the IGF1 receptor (IGF1R)
Conditions: in the absence of glucose
Protocol: SEQ ID NO: 2. SEQ ID NO: 3, SEQ ID NO: 4. […] SEQ ID NO: 6, SEQ ID NO: 5 and SEQ ID NO: 7 for IR and IGF1-R in the absence of glucose. […] Based on these predictions, the mutated insulin analogs are made. Normal mode analysis is then performed for each mutant insulin analog to test for whether the mutated insulin analog is a glucose-responsive insulin analog.

insulin growth factor 1 [IGF1]
Kd: 0.04 nM
